{
  "source": "patent US20250281633A1",
  "about": "“HER2 TARGETING FC ANTIGEN BINDING FRAGMENT-DRUG CONJUGATES” (MERCK PATENT GMBH, priority 2021, published 2025)",
  "origin": "cited, not measured here",
  "conditions": "mouse; cited from earlier work",
  "data": [
    {"substance": "Trastuzumab Fab: literature Fab fragment of Trastuzumab lacking the Fc portion", "values": [
      {"measurement": "terminal t1/2", "value": 4.4, "unit": "h"}
    ]}
  ]
}
